The source of these data is PubChem BioAssay AID798 (PCMD, 2007).

Sequences of proteins named here, by UniProt entry; tags and fusion partners are left off. Residues count along the entry.
UniProt P03951, 19-387 limits assumed: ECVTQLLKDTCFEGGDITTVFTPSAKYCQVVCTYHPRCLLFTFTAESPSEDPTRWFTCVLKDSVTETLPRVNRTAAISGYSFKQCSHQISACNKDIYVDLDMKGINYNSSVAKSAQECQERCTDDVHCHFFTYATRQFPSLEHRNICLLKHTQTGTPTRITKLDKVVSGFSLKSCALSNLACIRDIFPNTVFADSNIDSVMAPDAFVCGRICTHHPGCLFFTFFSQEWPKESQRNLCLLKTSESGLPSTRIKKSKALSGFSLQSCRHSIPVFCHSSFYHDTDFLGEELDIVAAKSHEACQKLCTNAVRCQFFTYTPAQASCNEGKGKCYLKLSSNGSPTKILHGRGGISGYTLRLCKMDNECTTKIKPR
UniProt P03951, 388-625 limits assumed: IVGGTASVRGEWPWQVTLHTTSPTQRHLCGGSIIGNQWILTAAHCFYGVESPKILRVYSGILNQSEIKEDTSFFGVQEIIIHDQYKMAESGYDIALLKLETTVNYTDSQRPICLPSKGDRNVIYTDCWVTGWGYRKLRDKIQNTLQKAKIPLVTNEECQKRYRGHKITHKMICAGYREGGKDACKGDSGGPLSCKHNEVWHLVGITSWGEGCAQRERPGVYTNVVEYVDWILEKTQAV

SMILES strings stand for the structures. The entries are a selection whose mix differs from that of the whole data set. Activity calls are given as the source filed them.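 Rule for the calls: active = inhibition of at least 40%; inactive = inhibition below 40%.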

In general, inhibition refers to the change of the read-out against control, counted positive when it falls.

In this test the target is Coagulation factor XI (Homo sapiens) (UniProt P03951). Nature of the test: factor XIa enzyme inhibition, large library – biochemical, 1536-well, primary screen (AID 798).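 Note: fluorescence of freed AMC excited at 355 nm; 0% = enzyme without compound and 100% = no enzyme blank.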 Conditions: purified FXIa, Boc-Glu-Ala-Arg-AMC fluorogenic substrate; at 5 µM; active compounds read high.
With `O=[N+]([O-])c1cc([N+](=O)[O-])c(Nc2ccccn2)c([N+](=O)[O-])c1`, the inhibition was inactive: -3.46%.
As for `Cc1c(NP(C)(=O)Oc2ccc(C(C)C)cc2)c(=O)n(-c2ccccc2)n1C` (configuration not stated), the inhibition was inactive: -7.63%.
In the case of `CCc1ccc(OP(C)(=O)O)cc1`, the inhibition was inactive: 3.78%.
Take `COc1ccccc1OP(C)(=O)Nc1ccc(C)cc1C` (configuration not stated): the inhibition was inactive: -6.67%.
In the case of `CP(=O)(Nc1ccccn1)Oc1ccccc1` (configuration not stated), the inhibition is inactive: 4.5%.
Turning to `Cc1cc(C)cc(OP(C)(=O)Nc2cccc(C(F)(F)F)c2)c1` (configuration not stated), the inhibition is inactive: 0.89%.
On to `COc1ccc(OP(C)(=O)Nc2ccccc2Br)cc1` (configuration not stated), for which the inhibition is inactive: 7.41%.
As to `COc1ccccc1OP(C)(=O)Nc1ccc(C)c(C)c1` (configuration not stated), the inhibition was inactive: 1.9%.
As for `Cc1nc2ccc3ccccc3c2o1.O=[N+]([O-])c1cc([N+](=O)[O-])c(O)c([N+](=O)[O-])c1`, the inhibition was inactive: -4.6%.
`CP(=O)(OCCOc1ccccc1)OCCOc1ccccc1`: the inhibition is inactive: -2.18%.
For the molecule `CP(=O)(Nc1ccc(Cl)cc1Cl)Oc1ccccc1` (configuration not stated), the inhibition was inactive: 0.75%.
The value for `CP(=O)(OC12CC3CC(CC(C3)C1)C2)OC12CC3CC(CC(C3)C1)C2` was inactive: -4.75%; that for `CCOC(=O)c1ccc(NP(C)(=O)Oc2ccc(Cl)cc2)cc1` (configuration not stated) was inactive: 5.54%.
With `COc1ccc(OP(C)(=O)Nc2ccc(Br)cc2)cc1` (configuration not stated), the inhibition was inactive: -4.39%.
`CCN(CC)CC(O)COC(=O)C(O)(c1ccccc1)C1CCCCC1` (configuration not stated): the inhibition is inactive: -1.81%.
For `CCc1ccc(OP(C)(=O)Nc2cccnc2)cc1` (configuration not stated), the inhibition was inactive: -5.47%.
`CP(=O)(Oc1ccccc1)N1CCOC1=O` (configuration not stated): the inhibition is inactive: 9.28%.
As for `O=C(OCCCN1CCCC1)C(O)(c1ccccc1)C1CCCCC1` (configuration not stated), the inhibition was inactive: 3.1%.
`CP(=O)(Nc1ccc(Cl)cc1)Oc1ccc(F)cc1` (configuration not stated): the inhibition was inactive: -5%.
The value for `CC(C)(C)c1ccc(OP(C)(=O)O)cc1` was inactive: 2.39%; that for `COc1ccccc1OP(C)(=O)Nc1ccccc1Br` (configuration not stated) was inactive: -0.04%; that for `CN(C)C(=O)c1c([N+](=O)[O-])cc([N+](=O)[O-])cc1[N+](=O)[O-]` was inactive: -2.29%.
